A word on the pEC50: it is the EC50 on a negative log10 scale, so that one unit is a factor of ten.

Amino acid sequences for entries named in this document (tags omitted). Residues count along the entry.
UniProt P43220, 24-463 limits assumed: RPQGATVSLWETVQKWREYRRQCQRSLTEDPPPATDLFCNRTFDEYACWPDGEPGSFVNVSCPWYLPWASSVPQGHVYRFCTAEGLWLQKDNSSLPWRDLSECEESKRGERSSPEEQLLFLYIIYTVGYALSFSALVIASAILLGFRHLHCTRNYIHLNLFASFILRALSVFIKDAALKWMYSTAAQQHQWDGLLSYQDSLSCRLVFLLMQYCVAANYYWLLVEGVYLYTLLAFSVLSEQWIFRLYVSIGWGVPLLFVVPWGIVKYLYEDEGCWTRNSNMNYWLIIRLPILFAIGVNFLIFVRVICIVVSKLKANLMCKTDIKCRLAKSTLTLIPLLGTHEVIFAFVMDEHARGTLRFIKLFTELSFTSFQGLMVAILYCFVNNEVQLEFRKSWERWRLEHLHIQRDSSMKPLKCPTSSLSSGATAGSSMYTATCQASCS

Structures are written as SMILES. pEC50: −log10 of the molar value.

The values that follow come from US10471127B2, “Peptide pharmaceuticals for insulin resistance” (Mederis Diabetes, LLC, priority 2011, dated 2019).

The target of this test is GLP-1 R (UniProt P43220). The test can be described thus: GLP-1 cellular assay, stimulation of cAMP levels (Cerep SA). The class given is cell-based. As to conditions: read-out: EC50 GLP-1 R; cAMP generated in cells; n.c. means EC50 not calculable.
Take `CCCCCCCCCCCCO[C@@H]1O[C@H](C(=O)NCCCC[C@H](NC(=O)[C@H](CCC(N)=O)NC(=O)C(C)(C)NC(=O)[C@H](CC(=O)O)NC(=O)[C@H](CC(C)C)NC(=O)[C@H](Cc2ccc(O)cc2)NC(=O)[C@H](CCCCN)NC(=O)[C@H](CO)NC(=O)[C@H](Cc2ccc(O)cc2)NC(=O)[C@H](CC(=O)O)NC(=O)[C@H](CO)NC(=O)[C@@H](NC(=O)[C@H](Cc2ccccc2)NC(=O)[C@@H](NC(=O)CNC(=O)[C@H](CCC(N)=O)NC(=O)C(C)(C)NC(=O)[C@@H](N)Cc2c[nH]cn2)[C@@H](C)O)[C@@H](C)O)C(=O)NC(C)(C)C(N)=O)[C@@H](O)[C@H](O)[C@H]1O`: the pEC50 was 6.57.

`CCCCCCCCCCCCO[C@@H]1O[C@H](C(=O)NCCCC[C@H](NC(=O)C(C)(C)NC(=O)[C@H](CC(=O)O)NC(=O)[C@H](CC(C)C)NC(=O)[C@H](Cc2ccc(O)cc2)NC(=O)[C@H](CCCCN)NC(=O)[C@H](CO)NC(=O)[C@H](Cc2ccc(O)cc2)NC(=O)[C@H](CC(=O)O)NC(=O)[C@H](CO)NC(=O)[C@@H](NC(=O)[C@](C)(Cc2ccccc2)NC(=O)[C@@H](NC(=O)CNC(=O)[C@H](CCC(N)=O)NC(=O)C(C)(C)NC(=O)[C@@H](N)Cc2c[nH]cn2)[C@@H](C)O)[C@@H](C)O)C(N)=O)[C@@H](O)[C@H](O)[C@H]1O`: the pEC50 is 6.38.

As for `CCCCCCCCCCCCO[C@@H]1O[C@H](C(=O)NCCCC[C@H](NC(=O)[C@H](CCCNC(=N)N)NC(=O)[C@@H]2CCC(=O)NCCCC[C@H](NC(=O)[C@H](CO)NC(=O)[C@H](Cc3ccc(O)cc3)NC(=O)[C@H](CC(=O)O)NC(=O)[C@H](CO)NC(=O)[C@@H](NC(=O)[C@H](Cc3ccccc3)NC(=O)[C@@H](NC(=O)CNC(=O)[C@H](CCC(N)=O)NC(=O)C(C)(C)NC(=O)[C@@H](N)Cc3c[nH]cn3)[C@@H](C)O)[C@@H](C)O)C(=O)N[C@@H](Cc3ccc(O)cc3)C(=O)N[C@@H](CC(C)C)C(=O)N[C@@H](CC(=O)O)C(=O)N2)C(=O)NC(C)(C)C(N)=O)[C@@H](O)[C@H](O)[C@H]1O`, the pEC50 was 5.52.
